Measurements taken from patent publication US20110070232A1, “Combination Therapy with an Antitumor Alkaloid” (Pharma Mar, S.A., priority 2008, published 2011).

System: PLC/PRF/5 tumors
Format: in vivo, mice
Details: day 35; PM00104 0.90, sorafenib 60 mg/kg/day
Procedure: Female athymic nude mice (Harlan Sprague Dawley, Madison, Wis.) were utilized for all experiments. Animals were housed in ventilated rack caging with food and water ad libitum. The mice were acclimated for at least 5 days prior to tumor implantation with a tumor cell suspension.
The tumor model used in these studies was PLC/PRF/5 cell line, which was obtained from the ATCC (Manassas, Va.).
PLC/PRF/5 were grown in Eagle's minimum essential medium supplemented with 10% FBS and 1% L-glutamine. Each animal was implanted SC on the right flank, using a 13G trochar and 1 mL syringe, with 5×10^6 PLC/PRF/5 cells in a 0.2 mL suspension of 50% Matrigel and 50% serum free MEM medium, without antibiotics. Bacterial cultures were performed on aliquots of the cells prepared for implantation.
Treatments were initiated on DPI 14.
Tumor size measurements were recorded twice weekly from the treatment initiation until the termination of the study.
Mean, standard deviation and standard error of the mean were determined for tumor volume for all animal groups at all assessments. Student's t test was performed on tumor volumes at each measurement day, including at the end of the study, to determine whether there were any statistically significant differences between combination treatment groups and single monotherapy treatment groups.

In the case of CNC(=O)c1cc(Oc2ccc(NC(=O)Nc3ccc(Cl)c(C(F)(F)F)c3)cc2)ccn1 [sorafenib], the “% Inhibition” value is reported as 63.5%.
